Measurements taken from ChEMBL document CHEMBL5512621, “Overview of the development of protein arginine methyltransferase modulators: Achievements and future directions” (Eur J Med Chem, 2024).

Amino acid sequences for entries named in this document (tags omitted).
UniProt O14744, whole entry: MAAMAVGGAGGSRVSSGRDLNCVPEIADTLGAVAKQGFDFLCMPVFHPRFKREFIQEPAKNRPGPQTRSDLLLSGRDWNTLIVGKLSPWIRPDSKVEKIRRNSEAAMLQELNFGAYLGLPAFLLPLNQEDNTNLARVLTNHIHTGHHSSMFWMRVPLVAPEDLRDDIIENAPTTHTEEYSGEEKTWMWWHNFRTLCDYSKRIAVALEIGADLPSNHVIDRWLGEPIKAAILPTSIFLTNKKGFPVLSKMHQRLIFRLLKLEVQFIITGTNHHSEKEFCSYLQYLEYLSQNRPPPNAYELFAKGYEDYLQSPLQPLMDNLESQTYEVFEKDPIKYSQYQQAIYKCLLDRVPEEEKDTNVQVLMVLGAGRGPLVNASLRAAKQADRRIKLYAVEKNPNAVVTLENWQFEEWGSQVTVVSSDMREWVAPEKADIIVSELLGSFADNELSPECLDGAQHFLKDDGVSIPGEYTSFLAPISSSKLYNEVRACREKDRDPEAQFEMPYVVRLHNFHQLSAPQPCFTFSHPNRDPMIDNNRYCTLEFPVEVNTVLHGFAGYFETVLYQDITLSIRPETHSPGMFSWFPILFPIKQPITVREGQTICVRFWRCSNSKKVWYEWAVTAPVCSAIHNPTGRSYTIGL

Biological target: Protein arginine N-methyltransferase 5 (Homo sapiens, UniProt O14744)
Test: Inhibition of PRMT5 (unknown origin)

## CC(=O)N1CCC(Nc2cc3c(cn2)CCN(C[C@H](O)[C@@H]2Cc4ccccc4CN2)C3=O)CC1
  IC50: 481 nM
